Read-outs that look alike come from different tables or passages of the source.
Columns and labels:
mice [1] = test: mice 55° C. hot plate test (sc/po); conditions: for hot plate test ED50 / hot plate test Max. efficacy: 55° C.
Wistar rats [2] = test: rat 55° C. hot water bath test
rats = test: rat formaldehyde test
Wister rats = conditions: for loss weight: rats, naloxone
Swiss mice = test: conditioned place preference testing in mice; conditions: morphine 10, buprenorphine 0.3, I1 3 and 10 mg·kg^−1
Wistar rats [3] = test: self-administration testing in rat; conditions: I1 0.05, 0.08, 0.1 mg·kg^−1, continuous 35–40 days session
heroin dependent rat = test: substitution test in heroin dependent rat
rhesus monkey [4] = test: rhesus monkey tail flick test; conditions: n = 5
rhesus monkey [5] = test: self-administration testing in rhesus monkey; conditions: 0.025–0.05 mg·kg^−1/inject
mice [6] = test: tail-flick test, s.c. and p.o. administration
mice [7] = test: acetic acid writhing test
[8] = analgesic models, po versus sc comparison
[9] = system: opiate receptors of rat brain; test: 3H-naloxone binding, Na+ index determination; conditions: for IC50: 5 nmol·L^−1 3H-naloxone, rat brain membrane
rhesus monkey [10] = test: substitution test in rhesus monkey self-administering morphine

For `COC12CCC3(CC1C(C)(O)CC1CCCCC1)C1Cc4ccc(O)c5c4C3(CCN1CC1CC1)C2O5` (centres unmarked), the “hot plate test ED50” value (mice [1]) was 159.1 µg/kg and the “hot plate test Max. efficacy” value (mice [1]; hydrochloride) was 94%.

For `COC12CCC3(CC1C(C)(O)CCc1cccs1)C1Cc4ccc(O)c5c4C3(CCN1CC1CC1)C2O5` (centres unmarked), the “hot water bath test ED50” value (Wistar rats [2]) was 3.48 mg/kg, the “hot water bath test Max. efficacy” value (Wistar rats [2]) was 79.3% and the “formaldehyde test ED50” value (rats) was 0.15 mg/kg. The “formaldehyde test Max. efficacy” value (rats) was 100.0%, the “number of total abstinence signs compared with saline group” value (Wister rats; morphine 30×Tid×7d, 30×Tid×14d, naloxone-precipitated) was “no significant differences” and the loss weight (Wister rats; Tid × 7d: morphine 30, buprenorphine 5, I1 3 mg·kg^−1) was 0.4 ± 0.6 g. The loss weight (Wister rats; Tid × 14d: morphine 30, buprenorphine 5, I1 3 mg·kg^−1) was 2.0 ± 1.9 g, the “induction of Conditioned Place Preference” value (Swiss mice) was “induced significant Conditioned Place Preference” and the “hot plate test ED50” value (mice [1]) was 860 µg/kg. The “ED50 P.O” value (mice [1]; Hot plate, p.o.) was 3.10 mg/kg, the “ED50 S.C” value (mice [1]; Hot plate, s.c.) was 0.57 mg/kg and the daily injections (Wistar rats [3]) was less than 10. For the same molecule, the induction of self-administration (Wistar rats [3]) was “couldn't induce self-administration”, the “self-administration after substitution for heroin” value (heroin dependent rat) was “Self-administration could continue” and the “Latency tail flick (X ± SD)” value (rhesus monkey [4]; 1 μg · kg^−1 Im) was 4.8 ± 2.1 s. The “Latency tail flick (X ± SD)” value (rhesus monkey [4]; 2 μg · kg^−1 Im) was 6.5 ± 3.6 s, the “Latency tail flick (X ± SD)” value (rhesus monkey [4]; 4 μg · kg^−1 Im) was 7.9 ± 2.5 s and the “Latency tail flick (X ± SD)” value (rhesus monkey [4]; 6 μg · kg^−1 Im) was 9.2 ± 3.1 s. For the same molecule, the “latency (X ± SD)” value (rhesus monkey [4]; 6 μg · kg^−1 po) was 5.1 ± 1.8 s, the “latency (X ± SD)” value (rhesus monkey [4]; 12 μg · kg^−1 po) was 6.0 ± 1.9 s and the “latency (X ± SD)” value (rhesus monkey [4]; 24 μg · kg^−1 po) was 6.7 ± 2.3 s. For the same molecule, the “latency (X ± SD)” value (rhesus monkey [4]; 48 μg · kg^−1 po) was 5.7 ± 0.5 s, the development of self-administration (rhesus monkey [5]) was “couldn't induce the development of self-administration” and the “ED50 P.O” value (mice [6]; p.o.) was 2.61 mg/kg. The “ED50 S.C” value (mice [6]; s.c.) was 1.75 mg/kg, the “acetic acid writhing test ED50” value (mice [7]) was 116 µg/kg and the “ED50 P.O” value (mice [7]; Acetic Writhing, p.o.) was 0.64 mg/kg. The “ED50 S.C” value (mice [7]; Acetic Writhing, s.c.) was 0.08 mg/kg, the “acetic acid writhing test Max. efficacy” value (mice [7]; hydrochloride) was 100% and the “range of effective dose” value ([8]; in two analgesic models) was 1 to 3 mg/kg. For the same molecule, the bioavailability ([8]; inferred from ED50 po/ED50 sc ratios) was “higher than that of buprenorphine”, the “affinity to opiate receptors relative to morphine” value ([9]; 3H-naloxone binding) was 100 times and the “Na^+ index” value ([9]; ratio of IC50 in presence of NaCl to IC50 in absence) was 0.42. For the same molecule, the IC50 ([9]; read-out: IC50 Free of Na^+, no NaCl) was 0.19 nM, the IC50 ([9]; read-out: IC50 Presence of Na^+, 100 nmol·L^−1 NaCl) was 0.08 nM and the “self-administration in replace of morphine or buprenorphine” value (rhesus monkey [10]; I1 0.05 mg·kg^−1/inject) was “could not maintain”. The “self-administration in the place of morphine” value (rhesus monkey [10]; I1 0.025, buprenorphine 0.05 mg·kg^−1/inject, morphine 0.25 mg/kg/inject) was “could continue self-administration”.

In the case of `COC12CCC3(CC1C(C)(O)CCc1cccs1)C1Cc4ccc(O)c5c4C3(CCN1CC1CCC1)C2O5` (centres unmarked), the “hot plate test ED50” value (mice [1]) is reported as 159 µg/kg and the “hot plate test Max. efficacy” value (mice [1]) is reported as 71.2%.

— patent US7119100B2 (priority 2001, dated 2006)
